Experimental findings from patent publication US20230144385A1, “ETHANOLAMINE FORMULATION FOR TREATING EPITHELIAL OVARIAN CARCINOMA” (METANOI THERAPEUTICS, INC., priority 2020, published 2023) are described below.

One data set relates to OVCAR3. Briefly: MTT dose-response, ovarian cancer cell line. The conditions noted are these: OVCAR3 versus the other cell lines. Format: cell-based. The protocol: PhosE was ineffective in inhibiting proliferation and colony formation of these cell lines up to 100 mg/ml (data not shown).
A short description of data set [1]: Bioavailability and PK of orally-delivered Etn and PhosE. Format: in vivo. The conditions noted are these: oral, compared to PhosE.

As for `NCCO` [Etn, Monoethanolamine], the “susceptibility of cell line relative to other lines tested” value with OVCAR3 is “most susceptible”. Besides, in data set [1], the PK properties entry is given as “better”.
